# Apparent affinities of Ab-14 variants for a coronavirus HR2 peptide

The measurements come from Li et al. 2023 (doi:10.1038/s41467-023-39022-2) through the FLAb antibody collection.

Antigen: PDVDLGDISGINAS, a 14-residue peptide of the SARS-CoV-2 spike HR2 region.

Parent: Ab-14, a human scFv built as VH, three GGGGS repeats, VL. Only the CDRs of the light chain vary.
VH: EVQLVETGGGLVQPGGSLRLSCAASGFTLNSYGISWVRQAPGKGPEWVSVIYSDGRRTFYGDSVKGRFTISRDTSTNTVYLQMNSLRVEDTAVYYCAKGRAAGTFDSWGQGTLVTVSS
VL: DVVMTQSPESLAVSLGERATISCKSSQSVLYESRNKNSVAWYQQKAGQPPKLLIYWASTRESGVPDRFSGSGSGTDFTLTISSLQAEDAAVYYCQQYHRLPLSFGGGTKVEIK

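These sequences belong to a second round, designed from the earlier measurements on random variants of the parent. Their group label is 14L_En_Gibbs (En: ensemble of fine-tuned language models; Gibbs: Gibbs sampling). In AlphaSeq, yeast of one mating type display the scFv and yeast of the other type display the target. Binding brings cells together so that they mate, and sequencing counts the barcode pairs among the diploids. A regression on co-assayed BCL2-family reference pairs converts the normalised counts of each replicate to an apparent Kd. Each pool was mated in six replicate cultures.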

Variants are written as CDR1, CDR2 and CDR3 of the light chain (limits as in the source). Parent: KSSQSVLYESRNKNSVA, WASTRES, QQYHRLPLS. The read-out is the apparent dissociation constant on a log10 scale (nM): the lower, the stronger. Averages over replicates are reported, and they cover detected replicates only. A pair that was not seen in that replicate is written "n.d."; this usually means weak binding, but a binder can also be missed. The parent sequence was in this pool as ten entries: three were never detected, three once, and four in most replicates, with averages from 0.34 to 2.37. Values of this round are not directly comparable with the first-round values of the same sequences. The authors' rule: three or more of the six replicates give a measured affinity, fewer mean a poor binder. As a blank, each scFv also met three strains without target: over all light chain designs, 4% of these pairings were detected, typically at 2.64 and seldom below 1.59. Also given: how often the same scFv was detected with the empty control strains, with their mean in brackets.

| CDR-L1 | CDR-L2 | CDR-L3 | log10 Kd, replicates | log10 Kd (nM), mean | control signals |
|---|---|---|---|---|---|
| HLQEQSFVGQKDYSSVA | NTECKYN | QQYARLPLM | 0.83 0.19 0.48 0.05 0.16 0.24 | 0.32 | 1/18 (3.17) |
| MLTWGDDHTTGHQNAIA | HAHERNT | QQYALLPLS | 0.76 0.69 1.05 0.42 0.79 1.20 | 0.82 | 0/18 |
| SCTSEMDQQQEQYNSVA | GVQHTAD | QQYGRLPLS | 1.72 1.50 1.28 1.28 1.60 1.66 | 1.51 | 1/18 (3.68) |
| NLNDSDMYASQMTDNIA | QDTLRNE | QQYAKLPLS | 1.19 1.78 0.85 0.97 2.73 1.18 | 1.45 | 0/18 |
| HSSPSWLYDSRNKNHVA | DATTRES | QQYHRLPLT | -0.12 -0.44 -0.27 -0.81 -0.41 -0.23 | -0.38 | 0/18 |
| HIQEVDNQVENKYGNVA | DASEYVA | QQYFQLPIS | 1.33 1.92 1.55 2.03 2.31 1.38 | 1.75 | 1/18 (2.46) |
| HMSDMLLGQEKIGHSIA | ETVVTSD | QQYGRLPLD | 0.55 0.37 0.54 0.56 0.50 0.43 | 0.49 | 2/18 (2.53) |
| ILMQVYKEPGAAVNNIA | DGANRLQ | QQYHRLPLV | 1.86 n.d. 2.47 n.d. 1.87 n.d. | 2.07 | 0/18 |
| MIAHQPESINQRMNNVA | NGAEAVE | QQYDRLPLI | 1.00 1.10 1.16 1.28 1.24 1.39 | 1.19 | 1/18 (1.54) |
| KITTSLYSWGSDKGAVA | EENITVR | QQYFRLPFS | 0.79 0.52 0.65 0.90 0.61 0.75 | 0.70 | 1/18 (2.35) |
| KLYDDATSRVQDAENIA | EKTESLQ | QQYHRLPLS | n.d. 1.69 1.02 2.20 1.12 2.03 | 1.61 | 0/18 |
| QIAGKLQHGGNQGDNVA | QGVETKN | QQYYTLPLT | n.d. n.d. n.d. n.d. n.d. n.d. | n.d. | 0/18 |
| MIKEENIGVGNYQNNIA | DGASTMA | QQYYRLPLA | 0.51 0.20 0.34 -0.04 0.10 0.52 | 0.27 | 0/18 |
| NLSMELLDATVKDMSIA | DAELSTM | QQYMRLPLS | 0.94 0.79 0.94 1.03 1.48 1.32 | 1.08 | 1/18 (2.44) |
| MIEEDNAGEQKNSSNIA | SVDQKED | QQYQRLPLM | 0.98 0.72 1.14 1.09 0.90 1.72 | 1.09 | 2/18 (2.37) |
| MMLSGSVEVQNIQNAVA | EASMVYD | QQYVSLPLS | n.d. n.d. n.d. n.d. 1.65 n.d. | 1.65 | 1/18 (1.40) |
| MLTMFNNENQGRSNNIA | DTNNVQE | QQYSRLPFA | 0.52 0.86 0.39 0.35 0.59 0.73 | 0.57 | 1/18 (2.46) |
| HMDLAVAGKTRDMNSIA | NTSARDA | QQYYRFPLI | 1.36 1.55 0.86 1.07 1.09 1.61 | 1.26 | 1/18 (3.55) |
| QISLNGWDGEKYEYAVA | EGTKKDA | QQYSRLPLS | 0.93 1.06 1.59 1.52 1.03 1.33 | 1.24 | 1/18 (2.10) |
| KITTSLYRWGSDKGAVA | EENIRVR | QQYFRLPFS | n.d. n.d. n.d. n.d. n.d. n.d. | n.d. | 1/18 (1.90) |
| KLSDSIEKMASNADNIA | DETETNM | QQYYTLPLS | n.d. 2.14 0.66 0.78 1.07 1.00 | 1.13 | 1/18 (1.85) |
| MIQQGENRDQEHYNSIA | EGHERPI | QQYYTLPLV | 1.55 1.17 1.08 1.35 1.35 1.13 | 1.27 | 1/18 (1.78) |
| SIQNLGMVNSVWKNSIA | DVNIVED | QQYYRLPLL | 0.78 0.32 0.56 0.50 0.86 0.62 | 0.61 | 1/18 (2.70) |
| RMNWHMSGATEAKNSMA | GVEHRAN | QQYDRLPLS | 0.34 0.16 0.15 0.25 0.09 0.54 | 0.25 | 0/18 |
| HLKTMPGQGPQTYSSIA | HAEIREP | QQYYRLPLM | 0.79 0.56 0.66 0.41 0.54 0.57 | 0.59 | 2/18 (2.74) |
| NIVGRVEDKQTENNAIA | DAHCRAG | QQYSRLPLS | 0.18 0.12 0.29 0.13 0.23 0.28 | 0.21 | 4/18 (2.50) |
| HISNMQAYAYSAKNSVA | DNETKLN | QQYIRLPLT | 1.38 1.20 1.65 0.77 0.86 1.80 | 1.28 | 1/18 (2.32) |
| FLTYQQDQTGLQYNAIA | QVNLKEN | QQYGRLPLA | n.d. n.d. n.d. n.d. n.d. n.d. | n.d. | 1/18 (2.27) |
| HLYFPWQSGQDSMHNVA | NDSTLMT | QHYNRLPLS | n.d. n.d. n.d. n.d. n.d. n.d. | n.d. | 0/18 |
| HFSQETMEFMSQNKAIA | EVTTTMD | QQYARLPFI | 1.14 0.82 1.23 0.97 1.00 1.16 | 1.05 | 2/18 (2.54) |
| KMKQSMEGNPKNWNSVA | DVESAKE | QQYARLPLM | 1.25 2.26 1.24 1.79 1.32 1.86 | 1.62 | 0/18 |
| QTTAFYQHGDDQNQAMA | DVTMRDQ | QQYSRLPLS | 0.76 0.56 1.25 0.24 0.69 0.60 | 0.68 | 0/18 |
| KLQNFSQEDNKMWNNIA | DTTMVHT | QQYMTLPLE | 0.86 0.75 0.79 0.92 0.43 1.89 | 0.94 | 0/18 |
| KITDKFLGLGNGRQNIA | HAMVAVE | QQYHQLPLA | 0.68 0.86 0.57 1.38 1.43 1.33 | 1.04 | 1/18 (2.83) |
| HVESDWLESNAKKKNVA | NGQGRVE | QQYGRLPLQ | 0.69 0.14 0.03 0.10 0.04 0.14 | 0.19 | 0/18 |
| NMQLQVRNGENNKYNIA | AEMKRVY | QQYQRLPLM | 1.73 1.67 1.39 1.39 1.47 1.37 | 1.50 | 2/18 (3.45) |
| SLVSKADYMDSERNNIA | NMDLRNT | QQYFHLPLT | 0.78 0.59 0.86 0.85 0.66 0.58 | 0.72 | 0/18 |
| RTTSHESESKGADASVA | EASLLED | QQYHRLPLD | 2.15 2.76 2.39 1.50 1.92 3.20 | 2.32 | 0/18 |
| KLKYQADQYGGQWNNVA | HADIRAP | QQYMKLPLN | 0.14 -0.09 -0.06 0.06 -0.07 0.23 | 0.03 | 1/18 (4.35) |
| KLESLMGESYFEKENIA | EGEQRFS | QQYHRLPLH | 1.89 1.45 1.67 2.13 1.94 1.38 | 1.74 | 1/18 (2.09) |
| QFDSSYRVGALNTDSIA | HAEMRVQ | QSYNRLPLM | 1.02 0.93 0.61 0.65 0.42 0.69 | 0.72 | 1/18 (2.05) |
| TLVGNIQGGGWAKKNVA | DESTRVN | QQYYRLPLS | 1.04 0.78 1.02 0.90 1.14 0.87 | 0.96 | 1/18 (2.69) |
| KLSSHEQHGTAQNSAMA | NAQVSTQ | QQYSHLPLS | 0.61 0.46 0.37 0.43 0.52 0.75 | 0.52 | 0/18 |
| KLRHHNLDFYDFENNIA | GESMRAV | QQYYRLPLN | 1.79 1.73 1.64 2.11 2.26 2.45 | 2.00 | 2/18 (2.45) |
| VMQMQNDRMQDAAKNIA | GVDMRET | QQYFRLPFM | 0.36 0.42 0.36 0.04 0.08 0.31 | 0.26 | 0/18 |

Top 7 of the variants detected in all replicates, tightest first:

CDR-L1	CDR-L2	CDR-L3	log10 Kd, replicates	log10 Kd (nM), mean	control signals
HSSPSWLYDSRNKNHVA	DATTRES	QQYHRLPLT	-0.12 -0.44 -0.27 -0.81 -0.41 -0.23	-0.38	0/18
KLKYQADQYGGQWNNVA	HADIRAP	QQYMKLPLN	0.14 -0.09 -0.06 0.06 -0.07 0.23	0.03	1/18 (4.35)
HVESDWLESNAKKKNVA	NGQGRVE	QQYGRLPLQ	0.69 0.14 0.03 0.10 0.04 0.14	0.19	0/18
NIVGRVEDKQTENNAIA	DAHCRAG	QQYSRLPLS	0.18 0.12 0.29 0.13 0.23 0.28	0.21	4/18 (2.50)
RMNWHMSGATEAKNSMA	GVEHRAN	QQYDRLPLS	0.34 0.16 0.15 0.25 0.09 0.54	0.25	0/18
VMQMQNDRMQDAAKNIA	GVDMRET	QQYFRLPFM	0.36 0.42 0.36 0.04 0.08 0.31	0.26	0/18
MIKEENIGVGNYQNNIA	DGASTMA	QQYYRLPLA	0.51 0.20 0.34 -0.04 0.10 0.52	0.27	0/18